The numbers were not newly measured in US20070292421A1, “Method for treating preeclampsia” (priority 2005, published 2007), which cites them from elsewhere.

This series addresses T1, human C5a receptor (Homo sapiens, UniProt P21730).
T1 sequence (P21730 1-350): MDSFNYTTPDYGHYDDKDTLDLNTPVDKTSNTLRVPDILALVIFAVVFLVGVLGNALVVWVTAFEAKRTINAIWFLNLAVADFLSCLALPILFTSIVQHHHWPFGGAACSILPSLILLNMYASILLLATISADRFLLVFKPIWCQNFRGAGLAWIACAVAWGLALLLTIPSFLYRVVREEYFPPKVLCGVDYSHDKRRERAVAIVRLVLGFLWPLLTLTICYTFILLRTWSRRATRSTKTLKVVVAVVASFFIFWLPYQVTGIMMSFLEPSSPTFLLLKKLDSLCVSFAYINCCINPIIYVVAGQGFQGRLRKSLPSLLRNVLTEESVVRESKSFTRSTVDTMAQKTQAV

For the substance “Ac-Phe [3D53, Ac-Phe [Orn-Pro-D-Cha-Trp-Arg]]”, the oral activity result (human, in vivo, po) is reported as “orally active”. For the same substance, the “efficacy in decreasing inflammatory sequelae” value (phase II clinical trials) is “superior efficacy to NSAID's and glucocorticoids”.
